“Also recorded” adds a separate entry of the source.
Columns and labels:
human MacroD1 = human MacroD1 (Homo sapiens, UniProt Q9BQ69); type: biochemical
human MacroD2 = human MacroD2 (Homo sapiens, UniProt A1Z1Q3); type: biochemical

The chains behind the UniProt entries cited, without tags or fusion partners. Where a name states a change or a piece, a line headed by the entry shows the natural chain unless it says otherwise.
UniProt Q9BQ69: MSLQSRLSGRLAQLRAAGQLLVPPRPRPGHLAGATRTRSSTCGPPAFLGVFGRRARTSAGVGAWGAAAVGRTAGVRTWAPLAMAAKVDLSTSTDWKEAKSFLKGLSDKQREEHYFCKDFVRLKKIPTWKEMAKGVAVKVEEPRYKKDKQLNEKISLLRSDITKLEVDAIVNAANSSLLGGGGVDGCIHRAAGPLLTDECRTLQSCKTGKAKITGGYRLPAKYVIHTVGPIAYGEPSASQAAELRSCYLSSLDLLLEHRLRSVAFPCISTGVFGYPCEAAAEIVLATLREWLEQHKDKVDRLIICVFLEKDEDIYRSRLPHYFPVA
UniProt A1Z1Q3: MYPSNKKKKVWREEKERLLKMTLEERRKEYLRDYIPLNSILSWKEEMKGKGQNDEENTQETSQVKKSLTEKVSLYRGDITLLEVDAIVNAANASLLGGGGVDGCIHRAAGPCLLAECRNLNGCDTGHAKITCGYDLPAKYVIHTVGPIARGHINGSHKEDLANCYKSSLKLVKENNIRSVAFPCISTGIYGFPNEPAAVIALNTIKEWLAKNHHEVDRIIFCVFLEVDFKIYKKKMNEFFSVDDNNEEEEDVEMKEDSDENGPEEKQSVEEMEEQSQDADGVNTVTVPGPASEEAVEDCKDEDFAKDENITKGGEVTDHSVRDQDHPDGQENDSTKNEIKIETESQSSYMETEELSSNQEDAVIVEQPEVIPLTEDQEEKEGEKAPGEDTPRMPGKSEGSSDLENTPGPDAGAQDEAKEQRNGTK

## COP(=O)(O)OP(=O)(O)OC[C@H]1O[C@@](C#N)(c2ccc3c(N)ncnn23)[C@H](O)[C@@H]1O [compound 4, β-methyl-GS-441524-DP]
Human MacroD1
  Inhibition of human MacroD1 (in words): did not affect either enzyme; also recorded: no detectable inhibition
Human MacroD2
  Inhibition of human MacroD2 (in words): did not affect either enzyme; also recorded: no detectable inhibition
